Measurements taken from patent US20040038428A1, “Protein microarrays” (priority 2000, published 2004).
Values joined by “and” are separate entries in the source; they are usually repeats but may differ in a detail not shown here. Equal entries are not always repeated.

Target: T1, FRB domain of FRAP and FKBP12 (Homo sapiens, UniProt P42345+P62942)
T1 construct: the FRB domain of FRAP and FKBP12; made in house; host or cells: Escherichia coli
Test: protein microarray: immobilized FRB probed with Cy5-FKBP12 with or without rapamycin
Format: binding
Settings: FRB spotted at 1 mg/ml, 1 μM rapamycin
Description: To define the concentration range under which this assay can be performed, the concentration of both FRB (the immobilized protein) and Cy5-FKBP12 (the solution-phase protein; data not shown) were varied. At high concentrations of FRB (about 1 mg/ml), the fluorescence of the spots begins to saturate. Below this, the fluorescence scales linearly with decreasing concentrations of FRB. FIGS. 1, 2, 3, 5, and 7 employ a concentration of 100 μg/ml for the protein being spotted. This concentration is readily achievable in the context of high throughput protein expression/purification and can even be achieved using recently reported in vitro transcription/translation systems (Madin et al. Proc. Natl. Acad. Sci. USA 97:559-564, 2000; incorporated herein by reference).
Much lower concentrations are needed for the solution-phase protein. In the case of Cy5-FKBP12, fluorescence of the resulting spots scales linearly with protein concentration over four orders of magnitude (see FIG. 6). Specific binding can easily be detected using as little as 150 pg/ml Cy5-FKBP12 (˜12.5 pM). […] This means that specific protein-protein interactions, once defined, may potentially be exploited to quantify protein abundance and modification in whole cells or tissues (“profiling” at the protein level). […]

In the case of “Cy5-FKBP12: (His)6-FKBP12 produced recombinantly in Escherichia coli, labeled with Cy5”, the “concentration of solution-phase protein at which specific binding is detected” value is reported as 150 pg/ml and ~12.5 pM.
